Data on 27 compounds can be found in PubChem BioAssay AID1766 (National Center for Advancing Translational Sciences (NCATS), 2009).

Only a part is listed here, and it is no random draw. Inconclusive results are not listed. Active and inactive are the calls of the source. Calls follow the shape of the dose curve; as a rule, active = well fitted curve in the direction sought with a large enough effect in the polarisation (not every such curve was filed as active); inconclusive = small, poorly fitted or top-dose-only effect, or effect the other way, or a change in a side signal; inactive = no such curve, though single readings can be large or run the other way; the % refers to the polarisation.

The nature of this assay: qHTS Assay for Inhibitors Targeting the Menin-MLL Interaction in MLL Related Leukemias: Competition With Fluorescein Labeled MLL-derived Peptide. Also: % of control where 0% means no effect. The note with it: Fluorescence polarization, fluorescein-MLL peptide displacement from menin; at 61.4 µM (top of the series) unless noted.
Regarding `CC(C)(C)c1ccc(OP(C)(=O)O)cc1`, the FP activity change is inactive: 2.55%.
As for `Nc1ccc([As](=O)(O)c2ccc(N)cc2)cc1`, the figure is inactive: -1.39%.
`COc1ccccc1OP(C)(=O)Nc1ccccc1Br` (configuration not stated): the FP activity change is inactive: 0.144%.
As to `CP(=O)(Nc1ccc(Cl)cc1)Oc1ccc(F)cc1` (configuration not stated), the FP activity change is inactive: 6.37%.
As for `CCN(/C(=N/P(=O)(N1CCOCC1)N1CCOCC1)N1CCOCC1)c1ccc(OC)cc1`, the figure is inactive: -4.65%; as for `OCCSCCO`, inactive: -1.28%; as for `O=C(OCCCN1CCCC1)C(O)(c1ccccc1)C1CCCCC1` (configuration not stated), inactive: -1.07%.
For `COc1ccccc1OP(C)(=O)Nc1c(C)n(C)n(-c2ccccc2)c1=O` (configuration not stated), the FP activity change is inactive: 3.81%.
For `O=[N+]([O-])c1cccc2n[nH]nc12`, the FP activity change is inactive: 3.36%.
With `CC(=O)N1C2C3N(C(C)=O)C1C1N(C(C)=O)C(C(N1C(C)=O)N3C(C)=O)N2C(C)=O`, the FP activity change is inactive: 1.44%.
As for `CCc1nc2c(n1)c1c(non1O)c1c2no[n+]1[O-]`, the figure is inactive: 1.07%; as for `O=[N+]([O-])c1cc([N+](=O)[O-])c(CCNc2ccccc2)c([N+](=O)[O-])c1`, inactive: 0.94%.
Turning to `CCc1ccc(OP(C)(=O)Nc2cccnc2)cc1` (configuration not stated), the FP activity change is inactive: 0.557%.
Next, `CP(=O)(Oc1ccccc1)N1CCOC1=O` (configuration not stated): inactive: -1.93%; `Cc1ccc(NP(=O)(Oc2ccccc2)Oc2ccccc2)nc1`: inactive: -0.846%; `COc1ccc(OP(C)(=O)Nc2ccc(Br)cc2)cc1` (configuration not stated): inactive: 3.56%.
With `COc1ccc(C2=NCC(CBr)S2)cc1` (configuration not stated), the FP activity change is inactive: -7.01%.
With `CCN(CC)CC(O)COC(=O)C(O)(c1ccccc1)C1CCCCC1` (configuration not stated), the FP activity change is inactive: 0.778%.
As for `O=[N+]([O-])c1cccc(NC2=NCC(CBr)S2)c1` (configuration not stated), the figure is inactive: 5.27%; as for `CC(C)OP(=O)(F)OC(C)C`, inactive: 3.01%; as for `C/C1=C2N=C(/C=C3N=C(/C(C)=C4\[N-][C@@](C)([C@H]5N=C1[C@@](C)(CCC(=O)NC[C@H](C)OP(=O)([O-])O[C@@H]1[C@H](O)[C@H](n6cnc7cc(C)c(C)cc76)O[C@@H]1CO)[C@@H]5CC(N)=O)[C@](C)(CC(N)=O)[C@H]4CCC(N)=O)[C@@](C)(CC(N)=O)[C@@H]\3CCC(N)=O)C(C)(C)[C@@H]/2CCC(N)=O.[C-]#N.[Co+3]`, inactive: -0.906% [at 24.8 µM].
On to `O=C(O)CNc1ccc([As](=O)(O)O)cc1`, for which the FP activity change is inactive: 7.22%.
Regarding `CC(C)(C)C(=O)NC(Sc1ccncn1)C(Cl)(Cl)Cl` (configuration not stated), the FP activity change is inactive: -0.247%.
Regarding `O=[N+]([O-])c1ncn(CCn2ncnc2[N+](=O)[O-])n1`, the FP activity change was inactive: 2.34%.
Next, `O=C(Nc1cc([As](=O)(O)O)ccc1O)c1ccccc1`: inactive: -10.3%; `CCOC(=O)c1ccc(NP(C)(=O)Oc2ccc(Cl)cc2)cc1` (configuration not stated): inactive: 0.201%; `CP(=O)(OC12CC3CC(CC(C3)C1)C2)OC12CC3CC(CC(C3)C1)C2`: inactive: 3.24%.
